Source: patent publication US12214059B2, “Cleavable radioligands for targeting cell surface receptors and uses thereof” (Full-Life Te[…] Limited, priority 2021, dated 2025)

Chains of the proteins cited; added tags and fusions are not shown.
UniProt Q04609, whole entry: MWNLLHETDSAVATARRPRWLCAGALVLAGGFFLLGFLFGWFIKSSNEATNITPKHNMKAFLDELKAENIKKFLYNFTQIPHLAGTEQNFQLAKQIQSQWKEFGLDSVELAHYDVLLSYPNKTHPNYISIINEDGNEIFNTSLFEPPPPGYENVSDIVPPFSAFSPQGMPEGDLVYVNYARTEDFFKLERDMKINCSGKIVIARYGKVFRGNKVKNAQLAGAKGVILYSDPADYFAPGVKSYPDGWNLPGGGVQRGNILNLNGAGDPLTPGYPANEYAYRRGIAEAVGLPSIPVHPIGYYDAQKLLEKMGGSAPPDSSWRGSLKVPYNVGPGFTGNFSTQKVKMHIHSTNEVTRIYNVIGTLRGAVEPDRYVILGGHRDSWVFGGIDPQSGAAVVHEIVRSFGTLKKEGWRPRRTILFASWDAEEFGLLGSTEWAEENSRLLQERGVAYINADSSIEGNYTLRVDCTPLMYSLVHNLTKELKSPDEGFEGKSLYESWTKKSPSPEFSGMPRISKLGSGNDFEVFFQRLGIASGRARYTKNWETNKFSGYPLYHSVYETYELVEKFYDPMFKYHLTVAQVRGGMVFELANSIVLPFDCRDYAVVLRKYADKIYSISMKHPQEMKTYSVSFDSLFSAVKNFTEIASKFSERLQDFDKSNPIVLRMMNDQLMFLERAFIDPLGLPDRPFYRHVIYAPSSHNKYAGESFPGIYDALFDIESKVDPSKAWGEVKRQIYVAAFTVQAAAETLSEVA

Tests used:
LNCap tumor-bearing mice = assay: Biodistribution study in CB-17 SCID mice bearing LNCap tumor; type: in vivo, mouse; settings: for T at 24 h (tumor uptake) / T/K at 24 h (tumor uptake/kidney uptake) / T at 96 h (tumor uptake) / T/K at 96 h (tumor uptake/kidney uptake): LNCap tumor-bearing mice
Method: Biodistribution Study in CB-17 SCID Mice Bearing LNCap Tumor
All animal care and experimental procedure were performed by following the animal protocols approved by the ethics committee of China Institute of Radiation Protection. The CB-17 SCID mice (Charles River, Beijing) were utilized for these studies. […] These mice received subcutaneous rear flank injections of approximately 4×10^6 LNCap cells suspended in 200 μL of phosphate-buffered saline (PBS) and Matrigel (Corning) (1/1).

PSMA = biological target: T1, PSMA (Homo sapiens, UniProt Q04609); assay: Cell-based radioligand competitive binding assay (^125I-C-8, LNCaP cells); settings: for Relative Binding Affinity: based on the mean value of the IC50 number, C-1 = 1.00
T1 construct: host or cells: LNCaP cells
Method: The culture medium was replaced with fresh medium every 2-3 days. Experiments were performed with cells at 70-80% confluence.
The final volume in each well was maintained at 200 μL and insufficient volume was adjusted by the binding buffer.

[1] = test system: PC-3 PIP tumor-bearing mice; assay: Biodistribution study in SCID mice bearing PC3-PIP tumor; type: in vivo, mouse; settings: PC3 PIP tumor-bearing mice
Method: Biodistribution Study in SCID Mice Bearing PC3-PIP Tumor
Severe combined immunodeficient (ICR-SCID) mice from the Institute of Cancer Research (Taconic Farms, Germantown, NY) were utilized for these studies. […] These mice received bilateral subcutaneous rear flank injections of approximately 10×10^6 PC-3 PIP cells (prostate cancer cell PC-3 stably expressing human PSMA) suspended in 100 μL of 0.9% NaCl. […] The tissues and organs were weighed, counted in a PerkinElmer Wizard 3 automatic γ counter, and the percent injected dose (% ID) and % ID/g of each organ or tissue were calculated, as shown in Tables 5-24 and FIG. 1 and FIG. 2.

[2] = Ex-vivo mouse plasma stability study of ^177Lu-labeled compounds; type: in vitro ADME; settings: 37° C.
Method: Plasma Stability Study (Mouse and Human)
Mouse blood was collected via cardiac puncture of the left ventricle. Blood was placed into heparin-coated microfuge tubes and then centrifuged at 3500 rpm for 10 min to separate plasma for stability studies. Human plasma was purchased directly.
At each time point (0, 1, 2, 4, 24, 48 72 h), an aliquot of 25 μL sample was taken and mixed with 100 μL methanol containing 1% formic acid, vertex for 30-60 sec, then centrifuged at 20000 rpm for 10 min. 100 μL supernatant was collected and diluted with 40 μL H2O. 100 μL of the resulting mixture was injected to radio-HPLC for stability assessment, as shown examples FIG. 2 and FIG. 3. The best-fit T½ value of test compounds were calculated by fitting the data with linear or non-linear regression using GraphPad Prism 8.0.1.

[3] = test system: metastatic castration-resistant prostate cancer (mCRPC) patients; assay: Human imaging (PET/CT, whole-body scintigraphy and SPECT/CT); type: in vivo; settings: 4 mCRPC patients
Method: Whole-body PET/CT acquisitions were performed with a United Imaging, uMI780 scanner ˜60 min after the dosing of 0.05 mCi per kilogram body weight of ^68Ga-PSMA11 (gozetotide).

[4] = * = value obtained using nonlinear regression

| Substance | % Remaining 0 min [2] [%] | % Remaining 1 h [2] [%] | % Remaining 4 h [2] [%] | % Remaining 24 h [2] [%] | % Remaining 48 h [2] [%] | % Remaining 72 h [2] [%] | T½ (h) [2, 4] | Relative Binding Affinity (PSMA) | also measured |
| --- | --- | --- | --- | --- | --- | --- | --- | --- | --- |
| 4pIBA-gGlu-OEG-OEG-Lys(-ESL1-DOTA)-OEG-Trx-2NaI-eKuE [Example I-69] | – | – | – | – | – | – | – | – | T at 24 h (tumor uptake) (LNCap tumor-bearing mice): 37.9; T/K at 24 h (tumor uptake/kidney uptake) (LNCap tumor-bearing mice): 1.84; T at 96 h (tumor uptake) (LNCap tumor-bearing mice): 26.7; T/K at 96 h (tumor uptake/kidney uptake) (LNCap tumor-bearing mice): 2.35; uptake ratio between tumor to kidney (LNCap tumor-bearing mice; mice bearing LNCap tumor, compared to ABL-56 (C-10) or C-9): improved uptake ratio between tumor to kidney |
| (HO-C18-gGlu-Lys(-OEG-DOTA)-OEG-OEG-OEG-NH2CH2CH2NH-TMA(-OEG-Trx-2NaI-eKuE)2 [Example C-7, reference compound] | 100 | 100 | 100 | 100 | 100 | 100 | Stable | – | LogIC50 Mean (PSMA; log10 of IC50 (negative values), nonlin fit, LNCaP cells, ^125I-C-8 radioligand): −7.766; IC50 (PSMA; nonlin fit, LNCaP cells, ^125I-C-8 radioligand, scientific notation, unit inferred): 17.2 nM; T at 24 h (tumor uptake) [1]: 31.4; T/K at 24 h (tumor uptake/kidney uptake) [1]: 1.14; T at 96 h (tumor uptake) [1]: 48.7; T/K at 96 h (tumor uptake/kidney uptake) [1]: 3.00 |
| (HO—C18)-gGlu-OEG-OEG-OEG-OEG-OEG-Glu-Arg-Gly-Glu-Thr-Gly-Pro-Ser-Gly-OEG-Lys(-ESL1-DOTA)-Trx-2NaI-eKuE [Example I-32] | – | – | – | – | – | – | – | 0.04 | – |
| C16-gGlu-K(DOTA)-Trx-2NaI-eKuE [Example C-5, reference compound] | – | – | – | – | – | – | – | 0.04 | – |
| C16-gGlu-OEG-OEG-OEG-K(DOTA)-Trx-2NaI-eKuE [Example C-3, reference compound] | – | – | – | – | – | – | – | 0.02 | – |
| DOTA-gGlu(-eLys-4pIBA)-Trx-2NaI-eKuE [Example C-9, reference compound] | – | – | – | – | – | – | – | – | T at 24 h (tumor uptake) (LNCap tumor-bearing mice): 45.7; T/K at 24 h (tumor uptake/kidney uptake) (LNCap tumor-bearing mice): 1.27; T at 96 h (tumor uptake) (LNCap tumor-bearing mice): 52.5; T/K at 96 h (tumor uptake/kidney uptake) (LNCap tumor-bearing mice): 0.89; uptake ratio between tumor to kidney (LNCap tumor-bearing mice; compared to PSMA-617 (C-1)): poor uptake ratio between tumor to kidney |
| HO-C18-gGlu-K(DOTA)-Trx-2NaI-eKuE [Example C-4, reference compound] | – | – | – | – | – | – | – | 0.03 | – |
| HO-C18-gGlu-OEG-OEG-ESL1-Gly-Gly-Gly-Lys(DOTA)-OEG-Trx-2NaI-eKuE [Example I-58] | 100 | 100 | 87.4 | – | 52.2 | 37.2 | – | – | T½ [2, 4]: 45.8 h |
| HO-C18-gGlu-OEG-OEG-Gly-4hPA-OEG-Lys(DOTA)-Trx-2NaI-eKuE [Example I-53] | 100 | 82.1 | 53.0 | 25.2 | 17.4 | 0 | 5.2* h | – | – |
| HO-C18-gGlu-OEG-OEG-Gly-5hPA-Lys(DOTA)-OEG-Trx-2NaI-eKuE [Example I-49] | 100 | 100 | 83.1 | 54.2 | 46.5 | 32.4 | 33.0* h | – | T at 24 h (tumor uptake) [1]: 35.1; T/K at 24 h (tumor uptake/kidney uptake) [1]: 3.49; T at 96 h (tumor uptake) [1]: 26.0; T/K at 96 h (tumor uptake/kidney uptake) [1]: 13.4 |
| HO-C18-gGlu-OEG-OEG-Gly-6hHA-Lys(DOTA)-OEG-Trx-2NaI-eKuE [Example I-50] | 100 | 100 | 58.4 | 13.7 | 8.87 | 0 | 5.7* h | – | – |
| HO-C18-gGlu-OEG-OEG-Leu-4hBA-OEG-Lys(DOTA)-Trx-2NaI-eKuE [Example I-54] | 100 | 90.7 | 11.2 | 0 | 0 | 0 | 2.1* h | – | – |
| HO-C18-gGlu-OEG-OEG-Lys(-ESL1-OEG-DOTA)-OEG-Trx-2NaI-eKuE [Example I-47] | 100 | 100 | 94.7 | 81.5 | 76.1 | 59.6 | 121* h | – | – |
| HO-C18-gGlu-OEG-OEG-OEG-Lys(DOTA)-OEG-Trx-2NaI-eKuE [Example C-6, reference compound] | 100 | 100 | 100 | 100 | 100 | 100 | Stable | – | T at 24 h (tumor uptake) [1]: 49.7; T/K at 24 h (tumor uptake/kidney uptake) [1]: 2.54; T at 96 h (tumor uptake) [1]: 42.3; T/K at 96 h (tumor uptake/kidney uptake) [1]: 6.50 |
| HO-C20-gGlu-OEG-OEG-ESL1-Lys(DOTA)-OEG-Trx-2NaI-eKuE [Example I-25] | – | – | – | – | – | – | – | 0.20 | – |
| ^68Ga-PSMA11 | – | – | – | – | – | – | – | – | uptake in salivary glands [3]: high uptake |
